Data published in patent publication US20110243927A1.

Target: human epidermal growth factor receptor 2 (HER-2) (human) (UniProt P04626)
Assay: cell-based or functional assay

- % Inhibition of cell growth, SKBr3 cells (HER-2+), SRB assay, 5 days, trastuzumab alone at 0.08 µg/ml: 31.2%
- % Inhibition of cell growth, SKBr3 cells (HER-2+), SRB assay, 5 days, trastuzumab alone at 0.4 µg/ml: 50.7%
- % Inhibition of cell growth, SKBr3 cells (HER-2+), SRB assay, 5 days, trastuzumab alone at 10 µg/ml: 53.9%
- % Inhibition of cell growth, SKBr3 cells (HER-2+), SRB assay, 5 days, trastuzumab alone at 50 µg/ml: 55.6%
Substance: trastuzumab (…, Genentech) (antibody)
